Assay: Toxicity in Swiss albino mouse assessed as effect on spontaneous locomotor activity administered intraperitonially measured at 10 mins interval for 30 mins
Conditions: in vivo, ip, 0.5 h

With C[C@H](C(=O)NCc1ccccc1F)N1C(=O)CCC1=O the Activity was “Dde”.

Source: ChEMBL document CHEMBL5113514 (J Med Chem, 2022)
